Data taken from patent US10562848B2, “Inhibitors of TNF superfamily costimulatory interactions and methods for uses of the same” (UNIVERSITY OF MIAMI, priority 2015, dated 2020).

Test system: Balb/c skin grafts in C57BL/6 mice
Test: Skin allograft survival model
Type: in vivo, mouse
Details: CTLA4-Ig alone, 250 μg days 0, 2, 4, 6
Excerpt: As a first in vivo test of the immunomodulating ability of the present compounds, the ability of compound 21045 to cause prolongation of skin allograft survival was examined. Full-thickness ear skins from donor mice (Balb/c, Jackson Laboratory; Bar Harbor, Me.) were transplanted onto the dorsal thorax of recipient mice (C57BL/6, Jackson Laboratory) by placing them on ˜1 cm diameter graft beds and securing with bandages. Following a protocol from Pinelli, D. F. et al. Am. J. Transplant. […] Mice treated with CTLA4-Ig alone rejected skin grafts with a mean survival time (MST) of 12.0 days. Addition of 21045 prolonged survival in a statistically significant manner (MST of 15 days), but less than the positive control MR-1 (MST of 19 days) (FIG. 7). Data are with a total of 5-8 mice per group. *p<0.05, ***p<0.001 compared to CTLA4-Ig alone. Skin transplants are among the most stringent transplants as they are known to generate higher immune response than, liver, heart, or kidney transplants; therefore, even small prolongations are indicative of immunomodulatory potential.

## CTLA4-Ig: CTLA4-Ig (Orencia; Bristol-Myers Squibb) [reference compound]
  mean survival time (MST) of skin grafts: 12.0 days
